# The list shows a part of the results, in another mix than the full data. The source made the active and inactive calls. Calls follow the shape of the dose curve; as a rule, active = well fitted activation curve with a large enough effect; inconclusive = small, poorly fitted or top-dose-only effect; inactive = no such curve, though single readings can be large or run the other way.
# Assay: qHTS Assay for Identifying a Potential Treatment of Ataxia-Telangiectasia; also: % of control where 0% means no effect; nearly all actives have a fitted effect of over 45% in size
# Conditions: […] A-T fibroblasts, KAP-1 phosphorylation AlphaLISA, neocarzinostatin DNA damage 30 min before lysis; at 57.5 µM (top of the series) unless noted
# Text: NIH Chemical Genomics Center [NCGC] NIH Molecular Libraries Probe Centers Network [MLPCN] MLPCN Grant: MH089030-01 Assay Submitter (PI): Wei Zheng and Yosef Shiloh Ataxia-telangiectasia (A-T) is a devastating and progressive disease for which, there is no cure. Although A-T is a multisystem disease, it is stereotyped characterized by its neurological symptoms such as truncal ataxia, due to cerebellar cortical degeneration of the Purkinje and granule cells. Other symptoms of A-T are telangiectasias (dilated blood vessels), primary immunodeficiency, marked sensitivity to ionizing radiation (IR), chromosomal instability and predisposition to cancer. The underlying genetic cause of A-T is null mutations in the ATM (A-T mutated) gene. ATM is a nuclear serine/threonine kinase that functions as a master regulator of the cellular responses to double strand breaks (DSBs) in the DNA. Upon activation by DSBs, ATM phosphorylates a plethora of down stream targets, including KAP-1 on […]. KAP-1 phosphorylation occurs shortly in response to DSBs and mediates global chromatin relaxation, which facilitates DSB repair. To screen for small molecules that will compensate for the loss of ATM in cells derived from A-T patients, we monitored KAP-1 phosphorylation as a readout for ATM-like activity using an AlphaLISA assay.
# qHTS Assay Protocol: Step,Parameter,Value,Description 1. Cell Plating, 3 ul, 500 cells/well in OPTI-MEM, 1% FBS, 1% Pen/Strep 2. Incubation, 16-24 hr, 37C, 5% CO2, 95% humidity 3. Library compounds, 23 nl, 76.7 - 0.61uM dilution series final concentration 4. Incubation, 60 min, 37C, 5% CO2, 95% humidity 5. Reagent, 1 ul, 1600 ng/ml NCS in PBS + 0.05% BSA + 0.005% Tween 20 6. Incubation, 30 min, 37C, 5% CO2, 95% humidity 7. Reagent, 1 ul, Premixed detection reagents and lysis buffer 8. Reagent, 1 ul, 0.6% Antifoam A 9. Incubation, 6 hr, 25C, 95% humidity 10. Readout, EnVision, EnVision plate reader. AlphaScreen 1536-well protocol Cells were plated using medium-binding white solid-bottom tissue culture treated Kalypsys plates. Multidrop dispense of 3 uL of […] (hTERT immortalized A-T patient fibroblast cells). Detection reagent and lysis buffer was 3.75nM Rab-a-pKAP1 antibody bound to 75 ng/ul AlphaScreen SA donor bead, 3.75 nM Biot-M-a-KAP1 antibody bound to AlphaLISA protein A acceptor bead, 0.5x protease inhibitor cocktail and 0.25x PerkinElmer lysis buffer. EnVision protocol for 1536-well AlphaScreen read (30ms excitation, 100ms read), about 10 min/plate.
row,Structure (SMILES),activation
1,CP(=O)(OC12CC3CC(CC(C3)C1)C2)OC12CC3CC(CC(C3)C1)C2,inactive: 4.06%
2,CCOC(=O)c1ccc(NP(C)(=O)Oc2ccc(Cl)cc2)cc1 (stereo unspecified),inactive: 5.06%
3,CP(=O)(Nc1ccc(Cl)cc1)Oc1ccc(F)cc1 (stereo unspecified),inactive: 3.47%
4,CC(C)(C)c1ccc(OP(C)(=O)O)cc1,inactive: -0.212%
5,COc1ccccc1OP(C)(=O)Nc1ccccc1Br (stereo unspecified),inactive: 6.21%
6,CN(C)C(=O)c1c([N+](=O)[O-])cc([N+](=O)[O-])cc1[N+](=O)[O-],inactive: 8.95%
7,COc1ccc(OP(C)(=O)Nc2ccc(Br)cc2)cc1 (stereo unspecified),inactive: -3.02%
8,CCN(CC)CC(O)COC(=O)C(O)(c1ccccc1)C1CCCCC1 (stereo unspecified),inactive: 3.36%
9,CCc1ccc(OP(C)(=O)Nc2cccnc2)cc1 (stereo unspecified),inactive: 2.42%
10,CP(=O)(Oc1ccccc1)N1CCOC1=O (stereo unspecified),inactive: -0.433%
11,O=C(OCCCN1CCCC1)C(O)(c1ccccc1)C1CCCCC1 (stereo unspecified),inactive: 20.3%
12,COc1ccccc1OP(C)(=O)Nc1c(C)n(C)n(-c2ccccc2)c1=O (stereo unspecified),inactive: 0.669%
13,O=[N+]([O-])c1cc([N+](=O)[O-])c(Nc2ccccn2)c([N+](=O)[O-])c1,inactive: 2.53%
14,Cc1c(NP(C)(=O)Oc2ccc(C(C)C)cc2)c(=O)n(-c2ccccc2)n1C (stereo unspecified),inactive: -3.03%
15,CCc1ccc(OP(C)(=O)O)cc1,inactive: 27.1%
16,COc1ccccc1OP(C)(=O)Nc1ccc(C)cc1C (stereo unspecified),inactive: 7.91%
17,CP(=O)(Nc1ccccn1)Oc1ccccc1 (stereo unspecified),inactive: 2.74%
18,COc1ccccc1OP(C)(=O)Nc1ccc(Br)cc1 (stereo unspecified),inactive: 6.9%
19,CN(C)CCOC(=O)C(O)(c1ccccc1)C1CCCC1 (stereo unspecified),inactive: -2.83%
20,Cc1nc2ccc3ccccc3c2o1.O=[N+]([O-])c1cc([N+](=O)[O-])c(O)c([N+](=O)[O-])c1,inactive: -5.06%
21,CP(=O)(OCCOc1ccccc1)OCCOc1ccccc1,inactive: -3.1%
22,CP(=O)(Nc1ccc(Cl)cc1Cl)Oc1ccccc1 (stereo unspecified),inactive: 6.16%
23,Cc1cc(C)cc(OP(C)(=O)Nc2cccc(C(F)(F)F)c2)c1 (stereo unspecified),inactive: 2.32% [at 11.5 µM]
24,COc1ccc(OP(C)(=O)Nc2ccccc2Br)cc1 (stereo unspecified),inactive: -0.127%
25,COc1ccccc1OP(C)(=O)Nc1ccc(C)c(C)c1 (stereo unspecified),inactive: 4.6%
26,CCCCCOc1ccc(NP(C)(=O)Oc2ccc(Cl)cc2Cl)cc1 (stereo unspecified),inactive: 11.5%

row,Structure (SMILES),activation
1,CP(=O)(Nc1ccccc1)Oc1ccc(F)cc1 (stereo unspecified),inactive: -6.9%
2,COc1ccc(OP(C)(=O)Nc2ccc(SC(F)(F)F)cc2)cc1 (stereo unspecified),inactive: 6.76%
3,CCOC(=O)c1ccc(NP(C)(=O)Oc2ccc(F)cc2)cc1 (stereo unspecified),inactive: 9.44%
4,O=C(OCCN1CCN(CCOCc2ccccc2)CC1)C(O)(c1ccccc1)c1ccccc1,inactive: -2.2%
5,CC(C)c1ccc(OP(C)(=O)Nc2ccc(SC(F)(F)F)cc2)cc1 (stereo unspecified),inactive: -7.76%
6,CP(=O)(Nc1ccccc1F)Oc1ccccc1 (stereo unspecified),inactive: -1.73%
7,CP(=O)(Nc1ccc2c(c1)OCCO2)Oc1ccccc1 (stereo unspecified),inactive: -0.823%
8,Cc1ccccc1NP(C)(=O)Nc1ccccc1C,inactive: -2.33%
9,CP(=O)(Nc1ccc(SC(F)(F)F)cc1)Oc1ccc(F)cc1 (stereo unspecified),inactive: -3.85%
10,CCOP(C)(=S)SCC(=O)NC(C)(CC)C(=O)O (stereo unspecified),inactive: -3.54%
11,Cc1cc(-c2cccc3ccccc23)c(C)cn1.O=[N+]([O-])c1cc([N+](=O)[O-])c(O)c([N+](=O)[O-])c1,inactive: -7.3%
12,O=[N+]([O-])c1ccc(OP2(=O)COCCO2)cc1 (stereo unspecified),inactive: 5.42%
13,COc1ccc(OP(C)(=O)Nc2cccc(Br)c2)cc1 (stereo unspecified),inactive: 0%
14,COc1ccc(NP(C)(=O)Oc2ccccc2OC)cc1 (stereo unspecified),inactive: 1.28%
15,CN(C)CCOC(=O)C(O)(c1ccccc1)C1CCCCC1 (stereo unspecified),inactive: 0.622%
16,COc1ccccc1OP(C)(=O)Nc1c(C)cccc1C (stereo unspecified),inactive: 7.54%
17,CN1CCCCC1COC(=O)C1(O)c2ccccc2CCc2ccccc21 (stereo unspecified),inactive: -1.56%
18,CP(=O)(Nc1ccc(SC(F)(F)F)cc1)Oc1ccccc1 (stereo unspecified),inactive: -0.962%
19,CCCOc1ccc(NP(C)(=O)Oc2ccc(Cl)cc2)cc1 (stereo unspecified),inactive: 15.1%
20,O=[N+]([O-])c1cc([N+](=O)[O-])c(Nc2nnnn2CCO)c([N+](=O)[O-])c1,inactive: -9.86%
21,CC1=C2N=C(C=C3N=C(C(C)=C4[N-][C@@](C)([C@@H]5N=C1[C@](C)(CCC(=O)NC[C@@H](C)OP(=O)([O-])O[C@H]1[C@@H](O)[C@@H](n6cnc7cc(C)c(C)cc76)O[C@@H]1CO)[C@H]5CC(N)=O)[C@@](C)(CC(N)=O)[C@@H]4CCC(N)=O)[C@@](C)(CC(N)=O)[C@@H]3CCC(N)=O)C(C)(C)[C@@H]2CCC(N)=O.[C-]#N.[Co+3],inactive: -18.1%
22,Cc1nc2ccc3ccccc3c2s1.O=[N+]([O-])c1cc([N+](=O)[O-])c(O)c([N+](=O)[O-])c1,inactive: 4.77%
23,O=[N+]([O-])c1cc([N+](=O)[O-])c(-n2nnc3ccccc32)c([N+](=O)[O-])c1,inactive: 4.9%
24,CP(=O)(Nc1cccc(Br)c1)Oc1ccccc1 (stereo unspecified),inactive: 7.81%
25,Cc1cc(C)cc(OP(C)(=O)Nc2ccccn2)c1 (stereo unspecified),inactive: -1.78%
26,Cc1ccc(C)c(NP(C)(=O)Oc2ccccc2)c1 (stereo unspecified),inactive: -12%

row,Structure (SMILES),activation
1,COc1ccccc1OP(C)(=O)Nc1cccc(Br)c1 (stereo unspecified),inactive: -9.09%
2,CCOC(=O)c1ccc(NP(C)(=O)Oc2cc(C)cc(C)c2)cc1 (stereo unspecified),inactive: 1.57%
3,CC1=NCCc2c1[nH]c1ccccc21.O=[N+]([O-])c1cc([N+](=O)[O-])c(O)c([N+](=O)[O-])c1,inactive: 0.105%
4,CCOC(=O)c1ccc(NP(C)(=O)Oc2ccccc2)cc1 (stereo unspecified),inactive: -4.92%
5,Cc1ccc(NP(C)(=O)Oc2ccccc2)c(C)c1 (stereo unspecified),inactive: 17.3%
6,COc1ccccc1OP(C)(=O)Nc1ccc(C)cc1 (stereo unspecified),inactive: 0.21%
7,COc1ccccc1OP(C)(=O)Nc1cc(Cl)ccc1C (stereo unspecified),inactive: 3.92% [at 11.5 µM]
8,Cc1cc(C)cc(OP(C)(N)=O)c1 (stereo unspecified),inactive: 3.35%
9,O=[N+]([O-])c1cc([N+](=O)[O-])c(Nc2cccnc2)c([N+](=O)[O-])c1,inactive: -1.31%
10,Cc1cccc(C)c1OP(C)(N)=O (stereo unspecified),inactive: 0.0532%
11,CC(C)(C)c1ccc(OP(C)(=O)Nc2ccc(SC(F)(F)F)cc2)cc1 (stereo unspecified),inactive: -4.58%
12,O=[N+]([O-])c1ccc2c(c1)C=Nc1ccccc1O2,inactive: 1.03%
13,CCN(CC)CCCOC(=O)C(O)(c1ccccc1)c1ccccc1,inactive: 4.67%
14,CCOP(C)(=S)SCC(=O)NC(C)C(=O)O (stereo unspecified),inactive: -4.63%
15,CCOC(=O)c1ccc(NP(C)(=O)Oc2ccc(OC)cc2)cc1 (stereo unspecified),inactive: 3.1%
16,CP(=O)(Oc1ccccc1)OC(c1ccccc1)C(F)(F)F (stereo unspecified),inactive: 3.31%
17,Cc1cccc(C)c1OP(C)(=O)Nc1ccc(SC(F)(F)F)cc1 (stereo unspecified),inactive: 0.534%
18,CP(=O)(Nc1ccc(SC(F)(F)F)cc1)Oc1ccc(Cl)cc1 (stereo unspecified),inactive: -9.09%
19,Cc1cc(C)cc(OP(C)(=O)Nc2ccc(SC(F)(F)F)cc2)c1 (stereo unspecified),inactive: 14.2%
20,CCc1ccc(OP(C)(=O)N2CCN(c3ccc([N+](=O)[O-])cc3)CC2)cc1 (stereo unspecified),inactive: -3.45%
21,CP(=O)(NC(=O)Nc1ccccc1)Oc1ccccc1 (stereo unspecified),inactive: 4.7%
22,CP(=S)(Nn1cnnc1)Oc1ccccc1 (stereo unspecified),inactive: 2.09%
23,COc1ccccc1OP(C)(=O)Nc1ccccc1 (stereo unspecified),inactive: -0.246%
24,CP(=O)(Nc1ccccc1Br)Oc1ccccc1 (stereo unspecified),inactive: 6.18%

# From PubChem BioAssay AID485349 (National Center for Advancing Translational Sciences (NCATS), 2010)
